From US20260306421A1, “SYSTEMS AND METHODS FOR TRANSDERMAN PATCH DELIVERY” (VITAMAX PATCH WHOLESALER LLC, priority 2022, published 2026)
Marks after values point to notes of the source that are not given here.

Experiment: Solubility of zinc chloride and zinc complexes (visual / HPLC)
Assay type: physicochemical
Method: Accurate measurement of the solubility was then repeated for some of the solvent systems by HPLC. In the HPLC solubility studies, an excess of the test agents was loaded into 2 mL of each test solvent. The solutions were left stirring overnight at 32° C. […] The drug suspensions were then centrifuged, the supernatant diluted, and each sample concentration was measured using HPLC.

## Cc1occc(=O)c1O.[Zn] [Zinc Maltol, zinc maltol]
Solvent PEG400
  Elemental zinc solubility (visual): 21.0* mg/mL
Solvent Transcutol
  Elemental zinc solubility (visual): 9.3* mg/mL
